Experiments:
human S1P1 = human S1P1 (Homo sapiens (Human), UniProt P21453); test: S1P1 Binding Assay (33P-S1P radioligand competition); conditions: membranes of CHO cells expressing human S1P1, 0.03 nM 33P-S1P; rounded to two digits
Description: Membranes were prepared from CHO cells expressing human S1P1. Cells were dissociated in buffer containing 20 mM HEPES, pH 7.5, 50 mM NaCl, 2 mM EDTA and Protease Inhibitor cocktail (Roche), and disrupted on ice using the Polytron homogenizer. The homogenate was centrifuged at 20,000 rpm (48,000 G) and the supernatant was discarded. The membrane pellets were resuspended in buffer containing 50 mM HEPES, pH 7.5, 100 mM NaCl, 1 mM MgCl2, 2 mM EDTA and stored in aliquots at −80° C. after protein concentration determination.
Membranes (2 μg/well) and 0.03 nM final concentration of 33P-S1P ligand (1 mCi/ml, American Radiolabeled Chemicals) were added to the compound plates. Binding was performed for 45 minutes at room temperature, terminated by collecting the membranes onto GF/B filter plates, and radioactivity was measured by TOPCOUNT®. The competition data of the test compounds over a range of concentrations was plotted as percentage inhibition of radioligand specific binding. The IC50 is defined as the concentration of competing ligand needed to reduce specific binding by 50%.
Table A below lists S1P1 Binding IC50 values from the following examples of this invention measured in the S1P1 binding assay described hereinabove. The results in Table A were rounded to two digits.

Amino acid sequences for entries named in this document (tags omitted).
UniProt P21453, whole entry: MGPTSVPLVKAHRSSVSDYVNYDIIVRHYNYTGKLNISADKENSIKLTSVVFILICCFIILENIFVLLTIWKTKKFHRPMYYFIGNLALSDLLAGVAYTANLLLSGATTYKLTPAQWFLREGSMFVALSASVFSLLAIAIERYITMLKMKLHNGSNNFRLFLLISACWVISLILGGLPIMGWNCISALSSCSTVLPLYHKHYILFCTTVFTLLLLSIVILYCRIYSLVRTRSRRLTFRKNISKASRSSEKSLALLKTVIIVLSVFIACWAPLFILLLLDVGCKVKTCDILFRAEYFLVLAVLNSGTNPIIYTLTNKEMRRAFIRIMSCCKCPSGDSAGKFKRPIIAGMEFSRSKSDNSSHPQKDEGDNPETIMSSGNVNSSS

[1] = target: S1P1 (membranes from S1P1/CHO cells) (Homo sapiens (Human), UniProt P21453); test: Receptor [35S] GTPγS Binding Assay, S1P1; assay type: biochemical
Description: Receptor [35S] GTPγS Binding Assays
Compounds were loaded in a 384 FALCON® v-bottom plate (0.5 μl/well in a 3-fold dilution). Membranes prepared from S1P1/CHO cells or EDG3-Ga15-bla HEK293T cells were added to the compound plate (40 μl/well, final protein 3 μg/well) with MULTIDROP®. [^35S]GTP (1250 Ci/mmol, Perkin Elmer) was diluted in assay buffer: 20 mM HEPES, pH7.5, 10 mM MgCl2, 150 mM NaCl, 1 mM EGTA, 1 mM DTT, 10 μM GDP, 0.1% fatty acid free BSA, and 10 μg/ml Saponin to 0.4 nM. 40 μl of the [^35S] GTP solution was added to the compound plate with a final concentration of 0.2 nM. The reaction was kept at room temperature for 45 min. At the end of incubation, all the mixtures in the compound plate were transferred to a 384 well FB filter plates via GPCR robot system. The filter plate was washed with water 4 times by using the modified manifold Embla plate washer and dried at 60° C. for 45 min. 30 μl of MicroScint 20 scintillation fluid was added to each well for counting at Packard TOPCOUNT®. EC50 is defined as the agonist concentration that corresponds to 50% of the Ymax (maximal response) obtained for each individual compound tested.
A smaller value for GTPγS S1P1 EC50 value indicated greater activity for the compound in the GTPγS S1P1 binding assay. A larger value for the GTPγS S1P3 EC50 value indicated less activity in the GTPγS S1P3 binding assay.

Compound | IC50 (human S1P1) [µM] | EC50 [1] [µM]
O=C(O)CCN[C@H]1COc2cc(-c3noc(-c4onc(-c5ccccc5)c4C(F)(F)F)n3)ccc2[C@@H]1O (racemic) [Example 5, 3-((3R*,4R*)-4-hydroxy-7-(5-(3-phenyl-4-(trifluoromethyl)isoxazol-5-yl)-1,2,4-oxadiazol-3-yl)chroman-3-ylamino)propanoic acid] | 0.012 | 0.0081
O=C(O)[C@H]1C[C@@H](N[C@H]2COc3cc(-c4noc(-c5onc(-c6ccccc6)c5C(F)(F)F)n4)ccc3[C@H]2O)C1 [Example 25, (1R,3S)-3-((3S,4R)-4-hydroxy-7-(5-(3-phenyl-4-(trifluoromethyl)isoxazol-5-yl)-1,2,4-oxadiazol-3-yl)chroman-3-ylamino)cyclobutanecarboxylic acid] | 0.024 | 0.0078
O=C(O)CCN[C@@H]1COc2cc(-c3noc(-c4onc(-c5ccccc5)c4C(F)(F)F)n3)ccc2[C@@H]1O [Example 53, 3-((3R,4S)-4-Hydroxy-7-(5-(3-phenyl-4-(trifluoromethyl)isoxazol-5-yl)-1,2,4-oxadiazol-3-yl)chroman-3-ylamino)propanoic acid] | 0.014 | 0.006
